The values that follow come from patent publication USRE40033E1, “Process for preparing 2-methyl-thieno-benzodiazepine” (Eli Lilly and Company, priority 1991, dated 2008).

A short description of this data set: in vivo. Conditions: rat.

SMILES strings stand for the structures.

Turning to `Cc1cc2c(s1)Nc1ccccc1N=C2N1CCN(C)CC1`, the ED50 (commonly the dose that gives a 50% effect, or the effect in half of the subjects) stood at 39.4 mg/kg.
